# Experimental melting point values from OPERA 2.9

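These are experimental values that the OPERA curators gathered from public databases to train and test their QSAR models. A listed value is a point estimate from one report or more. Method, purity and exact conditions of the single measurements are not given. Where a salt, mixture or single isomer is drawn, the source does not say that exactly this form was tested. Some upstream entries may be estimates or bounds without being marked so.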

The melting point is given in degrees Celsius.

* CN(C)CCN1C(=O)c2ccccc2N(C)c2ccccc21.Cl: MP 237 °C
* COc1ccc(C(N)=NO)cc1OC: MP 165 °C
* Nc1ccc2[nH]c(=O)c(=O)[nH]c2c1: MP 353 °C
* Cc1nc(=O)c2cc(Br)ccc2[nH]1: MP 220 °C
* Nc1nc(-c2cc3ccccc3o2)cs1: MP 244 °C
* CC(=O)Nc1cccc(C(=O)O)n1: MP 227 °C
* CCCCc1ccc(Cn2cncn2)cc1: MP 37.5 °C
* Cc1cc(=O)c(C(=O)O)nn1-c1ccccc1: MP 168 °C
* O=C(O)Cn1nc(O)ccc1=O: MP 236 °C
* O=C(CBr)c1ccc(S(=O)(=O)N2CCOCC2)cc1: MP 149 °C
* O=C(O)CCNC(=O)Nc1ccccc1: MP 174 °C
* CN(C)S(=O)(=O)c1ccc(NC(=O)CCl)cc1: MP 116 °C
* CC(Oc1ccc(F)cc1)C(=O)NN (stereo unspecified): MP 166 °C
* O=C(O)CCn1ccc2ccccc21: MP 50 °C
* CC(C)(C)OC(=O)Nc1ccc(C(F)(F)F)cc1N: MP 141 °C
* CCN(CC)C(=O)c1cccc(N)c1: MP 82 °C
* CC(C)(C)NS(=O)(=O)c1cccc(N)c1: MP 138 °C
* O=S(=O)(Cl)c1ccc2c(c1)CCC2: MP 37.5 °C
* O=C(O)c1ccc(N2CCCCC2=O)cc1: MP 214 °C
* CCOC(=O)c1c(C)[nH]c(C(=O)O)c1C: MP 205 °C
* Cc1ccc(NC(=O)CCl)c(Br)c1: MP 170 °C
* CC(Cl)C(=O)Nc1cccc2ccccc12 (stereo unspecified): MP 147 °C
* CS(=O)(=O)c1nc2ccccc2[nH]1: MP 190 °C
* O=C(O)C1(c2ccc(Br)cc2)CC1: MP 156 °C
* Cc1ccc(-n2nc(C(C)(C)C)cc2N)cc1: MP 117 °C
* O=C1CCC[C@@H]2[C@H]3CCC[N+]4([O-])CCC[C@@H](CN12)[C@@H]34 (some centres not stated): MP 208 °C
* NC(=O)c1cc[n+](CC2=C(C(=O)[O-])N3C(=O)[C@@H](NC(=O)Cc4cccs4)[C@H]3SC2)cc1: MP 148 °C
* O=C(O)Cn1cc(Br)c(=O)[nH]c1=O: MP 267 °C
* O=C(O)c1cccc(S(=O)(=O)NCc2ccccc2)c1: MP 226 °C
* N#CCC1=NC(=O)CS1: MP 184 °C
* Cc1ccc(C(=O)C(Br)CC(=O)O)cc1 (stereo unspecified): MP 117 °C
* ClCc1nnc(-c2ccccc2)o1: MP 95 °C
* Cc1ncc([N+](=O)[O-])cc1C(=O)O: MP 212 °C
* O=C(O)CCS(=O)(=O)c1ccc(Cl)cc1: MP 182 °C
* Oc1ccc2ccccc2c1CN1CCOCC1: MP 53 °C
* O=C(O)CCn1c(=O)oc2cc(Cl)ccc21: MP 161 °C
* NNC(=O)CSc1nc2ccccc2o1: MP 170 °C
* COc1c(F)cc(N)cc1F: MP 78.5 °C
* O=C(O)Cn1nc(-c2ccccc2)oc1=O: MP 197 °C
* Ic1c(-c2ccccc2)cccc1-c1ccccc1: MP 114.5 °C
* NN1C(=O)NC2(CCCCC2)C1=O: MP 165 °C
* Cc1cccc(NC2=NC(=O)CS2)c1: MP 161 °C
* O=Cc1cccc(C(F)(F)F)c1O: MP 56.5 °C
* CC(=O)Oc1ccc(C(=O)O)cc1OC(C)=O: MP 160 °C
* O=C(O)C1(c2ccc(Br)cc2)CCC1: MP 118 °C
* S=C=Nc1ccc2ccccc2c1: MP 60 °C
* CSc1noc(N)n1: MP 101 °C
* Nc1n[nH]c(-c2ccc(Br)cc2)n1: MP 215 °C
* NS(=O)(=O)C#Cc1ccccc1: MP 137 °C
* CCNC(=O)OC(C)(C)C: MP 39.5 °C
* O=Cc1cn(-c2ccccc2)nc1-c1ccncc1: MP 154 °C
* COC(=O)c1sc(N)c(C#N)c1C: MP 226 °C

The 5 lowest values of MP among the entries above:

structure (SMILES)	MP (°C)
CCCCc1ccc(Cn2cncn2)cc1	37.5
O=S(=O)(Cl)c1ccc2c(c1)CCC2	37.5
CCNC(=O)OC(C)(C)C	39.5
O=C(O)CCn1ccc2ccccc21	50
Oc1ccc2ccccc2c1CN1CCOCC1	53

Data: OPERA 2.9 data sets, kmansouri/OPERA on GitHub.